# Data taken from patent US4665083A, “Iminothiazolidine derivatives” (priority 1984, dated 1987).
# How the values were obtained:
# maximum electroshock = settings: mouse, in vivo, po
# Procedure: (7) Maximum inhibition of electroshock
# The examination is carried out on mice weighing 20 to 25 g according to Swinyard. Electroshocks having the parameters of 50 Hz, 45 mA and 0.4 sec are employed by means of corneal electrodes. The complete inhibition of the tonic spasm of the lower limb extensor is taken as the criterium of the anticonvulsive action.
# pentatetrazole spasm = settings: mouse, in vivo, po
# Procedure: (6) Inhibition of pentatetrazole spasm
# The test is performed on mice according to a modified method of Banziger and Hane.
structure (smiles),measurement,setting,value
"CN1C(=O)OC(C)(C)C1=O [Trimethadion, reference compound]",Therapeutical index (inhibition of maximum electroshock),maximum electroshock,5.3
same,Therapeutical index (inhibition of pentatetrazole spasm),pentatetrazole spasm,4.3
